# Yeast mating assay 2: variants of the scFv Ab-95

Reference: Engelhart et al. 2022, doi:10.1038/s41597-022-01779-4. File: FLAb, binding data.

All variants were tested on one target, the spike HR2 peptide PDVDLGDISGINAS (SARS-CoV-2).

Parent scFv Ab-95: VH joined to VL by a (GGGGS)3 linker. Changes lie in the light chain CDRs alone.
VH: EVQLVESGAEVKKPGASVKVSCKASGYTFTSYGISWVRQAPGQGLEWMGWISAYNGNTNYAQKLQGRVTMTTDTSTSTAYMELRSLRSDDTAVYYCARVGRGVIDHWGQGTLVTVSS
VL: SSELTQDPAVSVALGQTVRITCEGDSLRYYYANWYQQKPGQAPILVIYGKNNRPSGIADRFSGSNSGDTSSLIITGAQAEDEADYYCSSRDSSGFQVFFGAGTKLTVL

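In library AAYL52, one, two or three CDR residues were substituted; doubles and triples were drawn at random. Affinity was read by AlphaSeq, a pooled yeast mating assay with surface-displayed partners. Pairs that bind mate more often; barcode pairs of the diploids are counted by sequencing. A regression on co-assayed BCL2-family reference pairs converts the normalised counts of each replicate to an apparent Kd. The assay was run in three technical replicates.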

Positions count from residue 1 of the parent VL; R28V puts V in place of R. Each Kd is an estimate from the mating assay, the geometric mean of the replicates in which the pair was seen; lower is stronger. An entry "not detected" has no value in the source: the pair was not observed among the diploids in any replicate. This suggests poor binding but is not conclusive. As a blank, each scFv also met three strains without target: over library AAYL52, 28% of these pairings were detected, typically at 8.2 µM and seldom below 800 nM. For reference, the parent read 200 nM as the reference entry and 180 nM as a member of this library.

{"changes": "R28V A32L S88V", "Kd": "not detected", "seen in": "0/3"}
{"changes": "A32Q R53W S55T", "Kd": "not detected", "seen in": "0/3"}
{"changes": "Y29C Y30W K50E", "Kd": "140 nM", "seen in": "3/3"}
{"changes": "Y29N Y31N F98Q", "Kd": "3.8 nM", "seen in": "3/3"}
{"changes": "Y29A N33C S88R", "Kd": "1.9 µM", "seen in": "2/3"}
{"changes": "A32Q N33Q G49I", "Kd": "14 µM", "seen in": "1/3"}
{"changes": "N52H R53D R90K", "Kd": "not detected", "seen in": "0/3"}
{"changes": "N52W P54E F98D", "Kd": "5.7 µM", "seen in": "3/3"}
{"changes": "E23M S89L S93Q", "Kd": "1.5 µM", "seen in": "3/3"}
{"changes": "Y30T D91M F98N", "Kd": "3.8 µM", "seen in": "1/3"}
{"changes": "Y29N Y31W S89I", "Kd": "230 nM", "seen in": "3/3"}
{"changes": "S26M S55I Q96I", "Kd": "520 µM", "seen in": "1/3"}
{"changes": "Y29M N33M S88H", "Kd": "110 µM", "seen in": "1/3"}
{"changes": "L27W R28Q G94D", "Kd": "97 µM", "seen in": "2/3"}
{"changes": "Y31F R53D S89C", "Kd": "17 µM", "seen in": "2/3"}
{"changes": "S89P R90H D91C", "Kd": "2.6 µM", "seen in": "1/3"}
{"changes": "L27S A32L S88A", "Kd": "500 µM", "seen in": "1/3"}
{"changes": "D25W R53T P54G", "Kd": "13 µM", "seen in": "2/3"}
{"changes": "E23V R53C S92R", "Kd": "14 µM", "seen in": "3/3"}
{"changes": "G24A Y29E S93G", "Kd": "2.7 µM", "seen in": "3/3"}
{"changes": "A32V G94T", "Kd": "440 nM", "seen in": "3/3"}
{"changes": "D25R Y30P A32L", "Kd": "540 nM", "seen in": "3/3"}
{"changes": "K50F P54I S89P", "Kd": "8.6 µM", "seen in": "2/3"}
{"changes": "S26Q S89T S93F", "Kd": "450 nM", "seen in": "1/3"}
{"changes": "Y31H N33T S88Y", "Kd": "6.7 µM", "seen in": "3/3"}

The closing 4 entries, repeated:

changes,Kd,seen in
D25R Y30P A32L,540 nM,3/3
K50F P54I S89P,8.6 µM,2/3
S26Q S89T S93F,450 nM,1/3
Y31H N33T S88Y,6.7 µM,3/3